Chains of the proteins cited; added tags and fusions are not shown. Lines headed by an entry give the natural chain unless they say otherwise; changes in a name come on top.
UniProt Q9NXS2: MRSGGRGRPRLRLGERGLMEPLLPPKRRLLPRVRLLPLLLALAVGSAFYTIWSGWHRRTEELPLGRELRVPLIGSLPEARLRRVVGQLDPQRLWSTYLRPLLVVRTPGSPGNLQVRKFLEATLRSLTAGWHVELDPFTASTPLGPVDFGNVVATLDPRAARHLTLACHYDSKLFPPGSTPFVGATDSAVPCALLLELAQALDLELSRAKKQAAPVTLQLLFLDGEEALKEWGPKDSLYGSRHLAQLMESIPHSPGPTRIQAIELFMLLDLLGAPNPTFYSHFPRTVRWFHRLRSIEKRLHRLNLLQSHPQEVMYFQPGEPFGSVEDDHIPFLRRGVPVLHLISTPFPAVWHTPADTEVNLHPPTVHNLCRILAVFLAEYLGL

The target in the test is recombinant intracellular human glutaminyl cyclase (Homo sapiens (Human), UniProt Q9NXS2). The test can be described thus: Enzymatic activity of human glutaminyl cyclase in vitro (fluorescent substrate Gln-bNA). The format is biochemical. The conditions noted are these: 25° C., 50 μM Gln-bNA, pH 8.0.
As a reminder, the IC50 is the point on the concentration scale where inhibition reaches its midpoint. A word on the Ki: it is a measure of affinity in units of concentration, obtained from inhibition or displacement. In the case of `O=C(CCCCC(=O)NCCc1cnc[nH]1)NCCc1cnc[nH]1` [Compound VII, N,N′-bis[2-(1H-imidazol-4-yl)ethyl]adipamide], the IC50 came to 4.4 µM and the Ki stood at 2 µM.

On to `CC(CC(=O)NCCc1cnc[nH]1)CC(=O)NCCc1cnc[nH]1` [Compound VIII, N,N′-bis[2-(1H-imidazol-4-yl)ethyl]-3-methylpentanediamide], for which the IC50 is 7.3 µM and the inhibition constant (Ki) is 4 µM.

Turning to `O=C(CCCC(=O)NCCc1cnc[nH]1)NCCc1cnc[nH]1` [Compound VI, N,N′-bis[2-(1H-imidazol-4-yl)ethyl]glutaramide], the IC50 is 5.4 µM and the Ki was found to be 3 µM.

Turning to `O=C(CCC(=O)NCCc1cnc[nH]1)NCCc1cnc[nH]1` [Compound V, N,N′-bis[2-(1H-imidazol-4-yl)ethyl]succinamide], the half-maximal inhibitory concentration (IC50) came out at 20 µM and the Ki amounted to 11 µM.

For the compound `CC(C)(CC(=O)NCCc1cnc[nH]1)CC(=O)NCCc1cnc[nH]1` [Compound IX, N,N′-bis[2-(1H-imidazol-4-yl)ethyl]-3,3-dimethylpentanediamide], the IC50 was found to be 5.7 µM and the Ki is 3.17 µM.

Source of the values: US11845740B2, “Glutaminyl cyclase inhibitors and the use thereof in treatment of various diseases” (OBSCHESTVO S OGRANICHENNOI OTVETSTVENNOSTIYU …, priority 2017, dated 2023).
